# Laboratory results from PubChem BioAssay AID434926 (Sanford-Burnham Center for Chemical Genomics, 2010).
# Chains of the proteins cited; added tags and fusions are not shown. Lines headed by an entry give the natural chain unless they say otherwise; changes in a name come on top.
# UniProt P09923: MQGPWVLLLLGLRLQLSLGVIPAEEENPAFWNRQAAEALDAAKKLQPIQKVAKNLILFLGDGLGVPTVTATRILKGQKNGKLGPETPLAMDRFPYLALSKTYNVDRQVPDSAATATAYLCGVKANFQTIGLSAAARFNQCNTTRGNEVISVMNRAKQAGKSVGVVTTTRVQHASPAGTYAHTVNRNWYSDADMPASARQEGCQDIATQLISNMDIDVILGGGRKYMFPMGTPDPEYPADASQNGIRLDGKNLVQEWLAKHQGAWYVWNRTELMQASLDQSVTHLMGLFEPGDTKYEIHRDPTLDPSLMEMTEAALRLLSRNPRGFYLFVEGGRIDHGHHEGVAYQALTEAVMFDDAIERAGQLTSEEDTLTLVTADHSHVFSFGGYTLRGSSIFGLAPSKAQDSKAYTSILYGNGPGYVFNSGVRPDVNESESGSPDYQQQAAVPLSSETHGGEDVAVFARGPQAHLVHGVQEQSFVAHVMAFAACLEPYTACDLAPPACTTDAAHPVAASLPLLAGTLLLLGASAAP
# The list shows a part of the results, in another mix than the full data. Activity calls are given as the source filed them.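 How the source made its calls: active means at least twofold enzyme activation in any of six single-dose repeats, which the averaged readout prints as negative percent; inactive means the rest.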
# Target: Intestinal-type alkaline phosphatase (Homo sapiens) (UniProt P09923)
# Experiment: human IAP activators, confirmation, biochemical, luminescence, single concentration, uHTS hits (AID 434926)
# Conditions: purified IAP, CDP-Star luminescence, 30 min; at 8.3 µM; stronger effect = lower value
compound,measurement,value
CCOP1(=S)c2c(C)nn(CCC#N)c2N=C(c2ccc(F)cc2)N1C (stereo unspecified),"activation (%Activity, negative = activation)",active: -775%
